The EC50 is the midpoint of the concentration-response curve.

The chains behind the UniProt entries cited, without tags or fusion partners.
UniProt Q8TDV5, whole entry: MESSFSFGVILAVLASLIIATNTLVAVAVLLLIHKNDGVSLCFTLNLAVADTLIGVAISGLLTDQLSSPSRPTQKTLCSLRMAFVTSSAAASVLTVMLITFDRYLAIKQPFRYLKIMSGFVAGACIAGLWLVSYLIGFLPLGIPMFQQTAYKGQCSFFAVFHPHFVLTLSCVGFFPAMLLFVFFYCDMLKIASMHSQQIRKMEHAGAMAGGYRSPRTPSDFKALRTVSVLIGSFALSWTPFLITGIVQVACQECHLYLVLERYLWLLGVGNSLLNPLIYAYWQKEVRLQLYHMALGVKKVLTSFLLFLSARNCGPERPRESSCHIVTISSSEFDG

The assay concerns the target human GPR119 (Homo sapiens, UniProt Q8TDV5). The assay can be described thus: Cyclic AMP Assay in Stable Cell Line (HTRF). The conditions noted are these: read-out: hGPR119 EC50, Flp-In-CHO-hGPR119 cells, intracellular cAMP, 30 minutes at 37° C., 1 mM IBMX. The method, then: Flp-In-CHO cells (Invitrogen, Cat. #R758-07) are maintained in Ham's F12 medium supplemented with 10% fetal bovine serum, 1% antibiotic mixture and 2 mM L-glutamine. The cells are transfected with a DNA mixture containing human GPR119 in pcDNA5/FRT vector and the pOG44 vector (1:9) using Fugene6 (Roche), according to the manufacturer's instruction. After 48 hours, the medium is changed to medium supplemented with 400 μg/ml hygromycin B to initiate the selection of stably transfected cells.
To test the activity of compounds of the invention, Flp-In-CHO-hGPR119 cells are harvested and resuspended in DMEM plus 3% lipid-depleted fetal bovine serum. Forth μl of cells are plated in 384 well plates at a density of 15,000 cells/well. IBMX (3-isobutyl-1-methyl-xanthine) is added to the cells to a final concentration of 1 mM, followed by the addition of 500 nl of the compound to be tested. The cells are incubated at 37° C. for 30 minutes. Equal volume (20 μl) of the HTRF reagents, anti-cAMP-Cryptate and cAMP-XL665, are added to the cells. The plates are incubated at room temperature for 1 hour and read on a HTRF reader according to the manufacturer's instruction.

For `CS(=O)(=O)N1CCN(c2cnc(OC3CCN(Cc4nc(C(F)(F)F)cs4)CC3)cn2)CC1`, the EC50 was determined as 442 nM.
Next, `CC(c1ccc(C(F)(F)F)cc1)N1CC(Oc2c(F)cc(C3CCN(S(C)(=O)=O)CC3)cc2F)C1` (centres unmarked): 12 nM.

Source of the values: patent US8575168B2, “Compounds and compositions as modulators of GPR119 activity” (IRM LLC, priority 2009, dated 2013).
